The record followed here is article PMC2717937 (Journal of Experimental & Clinical Cancer Research : CR, 2009).

Structures can show the parent of a compound that is named as a salt.

For the compound `Cc1ccc(NC(=O)c2ccc(CN3CCN(C)CC3)cc2)cc1Nc1nccc(-c2cccnc2)n1` [Imatinib, Imatinib mesylate], under “either group (vehicle or tariquidar pretreatment)”, the “Imatinib in the brain within the first 5 minutes after administration” value is “No imatinib was detectable”. For the same compound, the “Brain Tmax” value (imatinib 50 mg/kg oral, vehicle 30 min before) is listed as “after two hours”.
